Yeast mating assay 1: variants of the scFv Ab-14

Binding partner: SARS-CoV-2 spike HR2 peptide, sequence PDVDLGDISGINAS.

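AAYL50 was designed without a model: most single CDR substitutions and a random sample of double and triple ones. AlphaSeq pools MATa yeast showing the antibodies with MATalpha yeast showing the peptide. Binding brings cells together so that they mate, and sequencing counts the barcode pairs among the diploids. Each replicate has its own calibration line, from reference interactions of the BCL2 family. Mating was done three times.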

The variants keep the heavy chain, the linker and the frameworks of Ab-14 (scFv order VH, the linker GGGGSGGGGSGGGGS, VL).
VH: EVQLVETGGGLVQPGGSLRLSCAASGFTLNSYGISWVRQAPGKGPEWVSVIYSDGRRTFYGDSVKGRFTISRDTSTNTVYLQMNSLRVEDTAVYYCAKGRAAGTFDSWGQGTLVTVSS
VL: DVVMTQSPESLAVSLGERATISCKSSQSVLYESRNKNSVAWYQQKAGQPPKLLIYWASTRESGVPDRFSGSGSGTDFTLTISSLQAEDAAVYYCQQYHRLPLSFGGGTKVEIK

Each variant is given by its three light chain CDRs, as the data file delimits them; those of the parent are KSSQSVLYESRNKNSVA, WASTRES, QQYHRLPLS.
The read-out is the apparent dissociation constant on a log10 scale (nM): the lower, the stronger.
A pair that was not seen in that replicate is written "nd"; this usually means weak binding, but a binder can also be missed.
For reference, the parent read 0.65 as the reference entry and 1.68 as a member of this library.
Background: pairings of library AAYL50 with three empty control strains gave a value in 18% of cases (median 4.19, 5th percentile 2.99). Values in that range, when seen in few replicates, are hard to tell from nonspecific mating.

KSSQSVLYESRDKNSVA, WASTRRS, AQYHRLPLS: nd, nd, nd.
KSSQSVLYESFAKPSVA, WASTRES, QQYHRLPLS: 2.40, 2.46, 2.73.
KSSGSVLYESRNKNSVA, WASTLES, QQYHCLPLS: 6.72, 3.99, nd.
CSSQSVLYESRNKNSVA, WASTRES, QQYARLPGS: nd, nd, nd.
KSSQSVLYESPNKESDA, WASTRES, QQYHRLPLS: nd, nd, nd.
KSSQSILYESRNKYSVA, WASTRES, QQYHRLPMS: 1.64, 1.48, 1.73.
KSSPSVLYESRNKNSVA, WASTRES, QQKHRLPLF: nd, nd, nd.
KSSQSVLYESVNKYVVA, WASTRES, QQYHRLPLS: nd, nd, nd.
KSSQSVLLESRNTNSVA, WASTRES, QQYHRLPLK: nd, nd, nd.
KSSYSVLYESRNKNSVS, WASTRES, QQDHRLPLS: 4.38, nd, nd.
KDSQSVLYESRNKNHVA, WASTRES, QQSHRLPLS: nd, 3.89, 3.74.
KSSQSALYESRNKNSVA, WANTRES, QQAHRLPLS: nd, nd, nd.
KSSQSVLYESRNKNSVA, WASCAES, MQYHRLPLS: 3.53, nd, nd.
KSSQSVLVESRYKNSVA, WASTRES, QQYHRLPGS: 0.60, 0.66, 0.82.
KSSHSVLYESRNKNSVA, WASTRES, QQYMRLPLY: 0.39, 0.71, 0.56.
KLSQSVPYESRNKNSVA, WASTRES, FQYHRLPLS: 1.44, 1.46, 1.44.
KSSQSVLYEERNKNSVA, WDSTRES, QQYHWLPLS: nd, nd, nd.
KSSQSVLYESRNRNSVA, WASLRES, QQYHRLPLS: 1.09, 1.27, 0.96.
KSSQMILYESRNKNSVA, WASTRES, QQNHRLPLS: nd, nd, 4.83.
KSSQSPLYESRNKNSVA, WASTRES, QQCHRLPLS: nd, nd, nd.

The remaining entries, values ahead:

nd, nd, 5.53: KSSQDVLYESRNKNSVA, WFSTRES, QQYNRLPLS.
nd, nd, 4.79: KSSQSVVYESRNKNSVA, WESKRES, QQYHRLPLS.
1.31, 1.55, 1.57: KSSQSVLYESRNKNSVA, WASTRES, QHTHRLPLS.
1.47, 1.58, 1.63: KSSGSVLYESRNKNSVA, WAATRES, QQYHRLPLS.
nd, 4.51, 5.04: KSSQSELYESRNKYSVY, WASTRES, QQYHRLPLS.
2.54, 2.47, 2.73: KSPQSVLYESRNKNSVA, WASTRES, QQYHRLPLW.
3.97, 4.53, 4.43: KSSYSVLYESRNKNSVA, WPSTRES, QQMHRLPLS.
nd, nd, nd: KSSQSVLYESRNKNSGA, WAQTRES, QQYHRLVLS.
2.64, 2.56, 2.64: ESSQSSLYESRNKNSVA, WASTRNS, QQYHRLPLS.
nd, nd, nd: KSSQCVLYESRNFNSVA, WASTRES, QQYHRLPLP.
2.56, 2.00, 2.02: KSSQSVLYESLNKNSVA, SASTRKS, QQYHRLPLS.
nd, nd, nd: KSSQSVLFESRNKNSVA, WASTRES, QQLHRKPLS.
nd, nd, nd: KSSQIVLYESRNKNSVE, WASTRNS, QQYHRLPLS.
nd, nd, nd: KSSQSVLYELRNKNSVP, WASTRES, QIYHRLPLS.
nd, 3.18, nd: KSSQSVLYRSRNKNSVA, WAWCRES, QQYHRLPLS.
4.29, 2.47, 3.38: KSSQSVLYESRNKNSVC, WASTREM, QQYHRLPLS.
1.77, 1.98, 2.48: KSSQSVLYESRNKWGVA, WASTRES, QQYHMLPLS.
nd, 2.73, nd: KSSQSVLYESRNYNWVA, WASTRES, IQYHRLPLS.
nd, nd, nd: KSSYSVLYMSRNKNSVA, WASTRES, QMYHRLPLS.
nd, nd, nd: KSSQSVNYESRNWNSVA, WASTRES, QQYHRLYLS.
nd, nd, nd: RSSQEVLYESRNKNSVA, WCSTRES, QQYHRLPLS.

Again, the first 3 entries without any signal:

For KSSQSVLYESRDKNSVA, WASTRRS, AQYHRLPLS, the assay gave nd, nd, nd.
For CSSQSVLYESRNKNSVA, WASTRES, QQYARLPGS, the assay gave nd, nd, nd.
For KSSQSVLYESPNKESDA, WASTRES, QQYHRLPLS, the assay gave nd, nd, nd.

Values reported by Engelhart et al. 2022, doi:10.1038/s41597-022-01779-4 (FLAb copy).